# Source: article PMC7483518, “Destabilizing single chain major histocompatibility complex class I protein for repurposed enterokinase proteolysis” (Scientific Reports, 2020)
# Where two headings read alike, the source gives them in different places.
# Key:
# [1] = test system: HLA-A*11:01 single chain protein; type: biochemical, Human; set-up: unit not given beside the values;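 on EZ50kD (pH 6.2): scaled with positive control peptide as 1 and negative control peptide as 0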
# [2] = target: photolabile unchained HLA-A*11:01 pMHC-I protein (Homo sapiens, UniProt P04439, A114D/D185E/E176A/F33Y/L180Q/S129P/T187R); assay: ELISA with photolabile unchained pMHC-I protein and UV irradiation; type: binding; conditions: Table 2; 62.5 nM photolabile pMHC-I mixture, 5 μM peptide in PBS, UV 365 nm 2 × 5 min on ice, 2 h room temperature on anti-β2m plate; Abs450nm − Abs570nm; instability cutoff < 0.6
sequence,measurement,setting,value
GTSGSPIIDK [reference compound],EZ50kD (pH 6.2),"[1]; Table 2, pH 6.2, 37 °C, enterokinase, Eq. (4), instability cutoff < 0.3",0.6334
same,ELISA450nm,[2],1.385
RVIDPRRCLK [reference compound],EZ50kD (pH 6.2),[1]; pH 6.2,1.075
same,EZ50kD (pH 8),[1]; pH 8,0.7339
